Reference: US20250195530A1, “POLQ INHIBITORS” (ASTRAZENECA AB, priority 2022, published 2025)

Amino acid sequences for entries named in this document (tags omitted). Residues count along the entry.
UniProt O75417, 1780-2590: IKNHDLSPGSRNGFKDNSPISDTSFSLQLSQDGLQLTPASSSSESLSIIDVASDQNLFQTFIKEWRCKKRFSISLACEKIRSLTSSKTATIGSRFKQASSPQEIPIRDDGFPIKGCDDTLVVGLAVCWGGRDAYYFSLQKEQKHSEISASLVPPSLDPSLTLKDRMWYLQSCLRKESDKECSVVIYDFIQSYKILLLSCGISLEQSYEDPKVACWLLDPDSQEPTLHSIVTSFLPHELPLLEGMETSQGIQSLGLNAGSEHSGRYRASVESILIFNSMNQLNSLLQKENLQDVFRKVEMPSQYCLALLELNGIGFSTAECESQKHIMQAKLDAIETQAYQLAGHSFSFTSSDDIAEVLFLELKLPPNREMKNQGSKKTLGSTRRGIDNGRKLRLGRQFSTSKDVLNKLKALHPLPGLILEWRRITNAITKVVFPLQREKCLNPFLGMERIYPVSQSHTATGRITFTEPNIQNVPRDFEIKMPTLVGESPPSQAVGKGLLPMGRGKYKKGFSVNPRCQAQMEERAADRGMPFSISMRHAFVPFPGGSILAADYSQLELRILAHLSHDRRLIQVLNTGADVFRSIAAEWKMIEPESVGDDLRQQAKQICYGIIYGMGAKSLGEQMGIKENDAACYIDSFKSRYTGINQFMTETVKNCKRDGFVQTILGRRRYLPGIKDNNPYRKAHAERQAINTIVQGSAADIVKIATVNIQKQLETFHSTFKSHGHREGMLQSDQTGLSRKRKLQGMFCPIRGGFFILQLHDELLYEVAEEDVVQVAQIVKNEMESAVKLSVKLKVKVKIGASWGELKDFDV

Molecular target: isolated polymerase domain (I1780-V2590) of DNA polymerase theta (Polθ) (Homo sapiens (Human), UniProt O75417)
Assay: biochemical

Row | Structure (SMILES) | IC50
1 | Cc1ccnc(Cn2c(-c3ccc(OCC4(O)COC4)cc3Cl)nc3c(OC4(C)CC4)ncnc32)c1 [Example T200, 3-((3-chloro-4-(6-(1-methylcyclopropoxy)-9-((4-methylpyridin-2-yl)methyl)-9H-purin-8-yl)phenoxy)methyl)oxetan-3-ol] | 7.94 nM
2 | CC1(Oc2ncnc3c2nc(-c2ccc(CC(N)=O)cc2Cl)n3Cc2cccc(C#N)c2)CC1 [Example T81, 2-(3-chloro-4-(9-(3-cyanobenzyl)-6-(1-methylcyclopropoxy)-9H-purin-8-yl)phenyl)acetamide] | 6.31 nM
3 | CC(=O)NCCOc1ccc(-c2nc3c(OC4(C)CC4)ncnc3n2Cc2cc(C)ccn2)c(Cl)c1 [Example T219, N-(2-(3-chloro-4-(6-(1-methylcyclopropoxy)-9-((4-methylpyridin-2-yl)methyl)-9H-purin-8-yl)phenoxy)ethyl)acetamide] | 10 nM
4 | CC1(Oc2ncnc3c2nc(-c2ccc(OCCCCCC(=O)O)cc2Cl)n3Cc2cccc(Cl)c2)CC1 [Example T437, 6-(3-chloro-4-(9-(3-chlorobenzyl)-6-(1-methylcyclopropoxy)-9H-purin-8-yl)phenoxy)hexanoic acid] | 3.98 nM
5 | Cc1ccnc(Cn2c(-c3ccc(NS(C)(=O)=O)cc3Cl)nc3c(OC4(C)CC4)ncnc32)c1 [Example T29, N-(3-chloro-4-(6-(1-methylcyclopropoxy)-9-((4-methylpyridin-2-yl)methyl)-9H-purin-8-yl)phenyl)methanesulfonamide] | 10 nM
6 | CC(CCOc1ccc(-c2nc3c(OC4(C)CC4)ncnc3n2Cc2cccc(C(F)(F)F)c2)c(Cl)c1)C(=O)O (single isomer, unassigned) [Example T397, 4-(3-chloro-4-(6-(1-methylcyclopropoxy)-9-(3-(trifluoromethyl)benzyl)-9H-purin-8-yl)phenoxy)-2-methylbutanoic acid] | 6.31 nM
7 | CC(CCOc1ccc(-c2nc3c(OC4(C)CC4)ncnc3n2Cc2cccc(F)c2F)c(Cl)c1)C(=O)O (single isomer, unassigned) [Example T262, 4-(3-chloro-4-(9-(2,3-difluorobenzyl)-6-(1-methylcyclopropoxy)-9H-purin-8-yl)phenoxy)-2-methylbutanoic acid] | 3.98 nM
8 | CN1CCCC1CCOc1ccc(-c2nc3c(OC4(C)CC4)ncnc3n2Cc2ccccc2)c(Cl)c1 (single isomer, unassigned) [Example D3, 9-benzyl-8-(2-chloro-4-(2-(1-methylpyrrolidin-2-yl)ethoxy)phenyl)-6-(1-methylcyclopropoxy)-9H-purine] | 6.31 nM
9 | Cc1cnc(Cn2c(-c3ccc(OCCN4CCCC4)cc3Cl)nc3c(OC4(C)CC4)ncnc32)s1 [Example T239, 2-((8-(2-chloro-4-(2-(pyrrolidin-1-yl)ethoxy)phenyl)-6-(1-methylcyclopropoxy)-9H-purin-9-yl)methyl)-5-methylthiazole] | 6.31 nM
10 | CC(OCCOc1ccc(-c2nc3c(OC4(C)CC4)ncnc3n2Cc2cccc(Cl)c2)c(Cl)c1)C(=O)O (racemic) [Example T305, rac-(R)-2-(2-(3-chloro-4-(9-(3-chlorobenzyl)-6-(1-methylcyclopropoxy)-9H-purin-8-yl)phenoxy)ethoxy)propanoic acid] | 3.98 nM
11 | Cc1ncccc1Cn1c(-c2ccc(CC(N)=O)cc2Cl)nc2c(OC3(C)CC3)ncnc21 [Example T60, 2-(3-chloro-4-(6-(1-methylcyclopropoxy)-9-((2-methylpyridin-3-yl)methyl)-9H-purin-8-yl)phenyl)acetamide] | 398 nM
12 | Cc1cccnc1CCn1c(-c2ccc(CC(N)=O)cc2Cl)nc2c(OC3(C)CC3)ncnc21 [Example T117, 2-(3-chloro-4-(6-(1-methylcyclopropoxy)-9-(2-(3-methylpyridin-2-yl)ethyl)-9H-purin-8-yl)phenyl)acetamide] | 1260 nM
13 | COC(=O)NCCc1ccc(-c2nc3c(OC4(C)CC4)ncnc3n2Cc2cc(C)ccn2)c(Cl)c1 [Example T222, methyl (3-chloro-4-(6-(1-methylcyclopropoxy)-9-((4-methylpyridin-2-yl)methyl)-9H-purin-8-yl)phenethyl)carbamate] | 3.16 nM
14 | Cc1ccnc(Cn2c(-c3ccc(OCC(=O)N4CC[C@@H](C#N)C4)cc3Cl)nc3c(OC4(C)CC4)ncnc32)c1 [Example T538, (R)-1-(2-(3-chloro-4-(6-(1-methylcyclopropoxy)-9-((4-methylpyridin-2-yl)methyl)-9H-purin-8-yl)phenoxy)acetyl)pyrrolidine-3-carbonitrile] | 10 nM
15 | Cc1ccnc(Cn2c(-c3ccc(CC(=O)N4C[C@@H]5C[C@H]4CN5)cc3Cl)nc3c(OC4(C)CC4)ncnc32)c1 [Example T559, 1-((1S,4S)-2,5-diazabicyclo[2.2.1]heptan-2-yl)-2-(3-chloro-4-(6-(1-methylcyclopropoxy)-9-((4-methylpyridin-2-yl)methyl)-9H-purin-8-yl)phenyl)ethan-1-one] | 7.94 nM
16 | Cc1ccnc(Cn2c(-c3ccc(OCC(=O)N4CCC(O)CC4)cc3Cl)nc3c(OC4(C)CC4)ncnc32)c1 [Example T580, 2-(3-chloro-4-(6-(1-methylcyclopropoxy)-9-((4-methylpyridin-2-yl)methyl)-9H-purin-8-yl)phenoxy)-1-(4-hydroxypiperidin-1-yl)ethan-1-one] | 10 nM

Row | Structure (SMILES) | IC50
17 | Cc1nc(Cn2c(-c3ccc(CC(N)=O)cc3Cl)nc3c(OC4(C)CC4)ncnc32)cs1 [Example T6, 2-(3-chloro-4-(6-(1-methylcyclopropoxy)-9-((2-methylthiazol-4-yl)methyl)-9H-purin-8-yl)phenyl)acetamide] | 63.1 nM
18 | COc1ccc(Cl)cc1Cn1c(-c2ccc(OCCOCC(=O)O)cc2Cl)nc2c(OC3(C)CC3)ncnc21 [Example U48, 2-(2-(3-chloro-4-(9-(5-chloro-2-methoxybenzyl)-6-(1-methylcyclopropoxy)-9H-purin-8-yl)phenoxy)ethoxy)acetic acid] | 6.31 nM
19 | Cc1ccnc(Cn2c(-c3ccc(OCC(=O)NC(C)C)cc3Cl)nc3c(OC4(C)CC4)ncnc32)c1 [Example T366, 2-(3-chloro-4-(6-(1-methylcyclopropoxy)-9-((4-methylpyridin-2-yl)methyl)-9H-purin-8-yl)phenoxy)-N-isopropylacetamide] | 7.94 nM
20 | Cc1ccnc(Cn2c(-c3ccc(CC(=O)NC[C@H](C)O)cc3Cl)nc3c(OC4(C)CC4)ncnc32)c1 [Example T371, (S)-2-(3-chloro-4-(6-(1-methylcyclopropoxy)-9-((4-methylpyridin-2-yl)methyl)-9H-purin-8-yl)phenyl)-N-(2-hydroxypropyl)acetamide] | 10 nM
21 | CCNC(=O)c1ccc(-c2nc3c(OC4(C)CC4)ncnc3n2Cc2cc(C)ccn2)c(Cl)c1 [Example T114, 3-chloro-N-ethyl-4-(6-(1-methylcyclopropoxy)-9-((4-methylpyridin-2-yl)methyl)-9H-purin-8-yl)benzamide] | 15.8 nM
22 | CC(CCOc1ccc(-c2nc3c(OC4(C)CC4)ncnc3n2Cc2cc(Br)ccc2F)c(Cl)c1)C(=O)O (racemic) [Example T258, 4-(4-(9-(5-bromo-2-fluorobenzyl)-6-(1-methylcyclopropoxy)-9H-purin-8-yl)-3-chlorophenoxy)-2-methylbutanoic acid] | 3.98 nM
23 | Cc1ccnc(Cn2c(-c3cccc(OCCN(C)C)c3Cl)nc3c(OC4(C)CC4)ncnc32)c1 [Example T237, 2-(2-chloro-3-(6-(1-methylcyclopropoxy)-9-((4-methylpyridin-2-yl)methyl)-9H-purin-8-yl)phenoxy)-N,N-dimethylethan-1-amine] | 10 nM
24 | Cc1ccnc(Cn2c(-c3cccc(CC(N)=O)c3Cl)nc3c(OC4(C)CC4)ncnc32)c1 [Example T56, 2-(2-chloro-3-(6-(1-methylcyclopropoxy)-9-((4-methylpyridin-2-yl)methyl)-9H-purin-8-yl)phenyl)acetamide] | 20 nM
25 | CC1(Oc2ncnc3c2nc(-c2ccc(CC(N)=O)cc2Cl)n3Cc2ccc(F)cc2)CC1 [Example T43, 2-(3-chloro-4-(9-(4-fluorobenzyl)-6-(1-methylcyclopropoxy)-9H-purin-8-yl)phenyl)acetamide] | 7.94 nM
26 | Cn1nc(COc2ccc(-c3nc4c(OC5(C)CC5)ncnc4n3Cc3cccc(Cl)c3)c(Cl)c2)cc1C(=O)O [Example T394, 3-((3-chloro-4-(9-(3-chlorobenzyl)-6-(1-methylcyclopropoxy)-9H-purin-8-yl)phenoxy)methyl)-1-methyl-1H-pyrazole-5-carboxylic acid] | 3.16 nM
27 | CNS(=O)(=O)c1ccc(-c2nc3c(OC4(C)CC4)ncnc3n2Cc2cc(C)ccn2)c(Cl)c1 [Example T30, 3-chloro-N-methyl-4-(6-(1-methylcyclopropoxy)-9-((4-methylpyridin-2-yl)methyl)-9H-purin-8-yl)benzenesulfonamide] | 15.8 nM
28 | Cc1cnc(Cn2c(-c3ccc(OCCCN(C)C)cc3Cl)nc3c(OC4(C)CC4)ncnc32)s1 [Example T148, 3-(3-chloro-4-(6-(1-methylcyclopropoxy)-9-((5-methylthiazol-2-yl)methyl)-9H-purin-8-yl)phenoxy)-N,N-dimethylpropan-1-amine] | 12.6 nM
29 | Cc1cc(Cn2c(-c3ccc(CC(N)=O)cc3Cl)nc3c(OC4(C)CC4)ncnc32)n(C)n1 [Example T32, 2-(3-chloro-4-(9-((1,3-dimethyl-1H-pyrazol-5-yl)methyl)-6-(1-methylcyclopropoxy)-9H-purin-8-yl)phenyl)acetamide] | 631 nM
30 | COc1ccc(F)cc1Cn1c(-c2ccc(OCC[C@H](C)C(=O)O)cc2Cl)nc2c(OC3(C)CC3)ncnc21 [Example U68, (S)-4-(3-chloro-4-(9-(5-fluoro-2-methoxybenzyl)-6-(1-methylcyclopropoxy)-9H-purin-8-yl)phenoxy)-2-methylbutanoic acid] | 2.51 nM
31 | COC(=O)NCCOc1ccc(-c2nc3c(OC4(C)CC4)ncnc3n2Cc2cc(C)ccn2)c(Cl)c1 [Example T228, methyl (2-(3-chloro-4-(6-(1-methylcyclopropoxy)-9-((4-methylpyridin-2-yl)methyl)-9H-purin-8-yl)phenoxy)ethyl)carbamate] | 3.16 nM
32 | CC(CCOc1ccc(-c2nc3c(OC4(C#N)CC4)ncnc3n2Cc2cccc(Cl)c2)c(Cl)c1)C(=O)O (racemic) [Example T252, 4-(3-chloro-4-(9-(3-chlorobenzyl)-6-(1-cyanocyclopropoxy)-9H-purin-8-yl)phenoxy)-2-methylbutanoic acid] | 10 nM
